Data published in paper PMC7749166, “Submolecular probing of the complement C5a receptor–ligand binding reveals a cooperative two-site binding mechanism” (Communications Biology, 2020).
Numbering of substitutions follows the chain as printed.

Experiments:
C5aR^D282A = target: T1, C5aR^D282A (Homo sapiens, UniProt P21730, D282A); test: FD-/FV-based AFM dynamic force spectroscopy vs D282A mutant; type: binding; details: D282A vs WT
T1 construct: Flag (N); His8 (C); made in house; host or cells: HEK-293S cells (BacMam baculovirus)
T1 sequence (P21730 1-350 D282A): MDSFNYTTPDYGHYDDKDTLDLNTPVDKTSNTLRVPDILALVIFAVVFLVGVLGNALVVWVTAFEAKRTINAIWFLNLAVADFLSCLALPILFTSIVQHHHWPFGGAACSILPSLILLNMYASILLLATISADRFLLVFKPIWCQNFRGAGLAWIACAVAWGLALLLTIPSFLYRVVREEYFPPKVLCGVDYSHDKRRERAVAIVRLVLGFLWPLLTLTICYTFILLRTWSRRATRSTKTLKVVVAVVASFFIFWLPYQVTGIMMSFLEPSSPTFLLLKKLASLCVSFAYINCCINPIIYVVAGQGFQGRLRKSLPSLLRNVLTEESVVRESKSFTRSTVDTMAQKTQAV
Experimental: (§1) The reconstituted C5aR sample solution (either wt-C5aR or mutants) was 20-fold diluted in fusion buffer solution (20 mM HEPES, 300 mM NaCl, and 25 mM MgCl2) and adsorbed on freshly cleaved mica for 15 min. After rinsing with imaging buffer (20 mM HEPES and 300 mM NaCl) the sample was transferred to the AFM.
Rectangular Si3N4 AFM cantilevers with silicon tips (BioLever mini, Bruker) were first cleaned with chloroform for 10 min, rinsed with ethanol, N2 dried, and then cleaned for 15 min in an ultraviolet radiation and ozone cleaner (UV-O, Jetlight, CA, USA). For the aminofunctionalization, the cantilevers were immersed in an ethanolamine solution (3.3 g ethanolamine in 6.6 ml DMSO) overnight and then rinsed in DMSO (3 × 1 min) and ethanol (3 × 1 min), followed by N2 drying. This was followed by the N-hydroxysuccinimide (NHS)-PEG27-acetal linker attachment. A 1 mg portion of the NHS-PEG27-acetal linker (JKU, Linz, Austria) was diluted in 0.5 ml chloroform with 30 µl triethylamine and the cantilevers were immersed in this solution for 2 h. […]
In FD-based AFM measurements, the AFM cantilever is oscillated in a sinusoidal manner well below its resonance frequency, while the sample surface is contoured pixel-by-pixel. For each approach–retraction cycle of the oscillating cantilever, a force–distance curve is recorded. […]

C5aR^R175V/Y258V = target: T2, C5aR^R175V/Y258V (Homo sapiens, UniProt P21730, R175V/Y258V); test: FD-/FV-based AFM dynamic force spectroscopy vs double mutant; type: binding; details: R175V/Y258V vs WT
T2 construct: Flag (N); His8 (C); made in house; host or cells: HEK-293S cells (BacMam baculovirus)
T2 sequence (P21730 1-350 R175V/Y258V): T1 sequence (P21730 1-350 D282A) with R175V, Y258V, A282D
Experimental: as §1
To functionalize AFM cantilevers with the PMX53 antagonist (Ace-Phe-[{Orn}-Pro-{D-Cha}-Trp-Arg]), aminofunctionalized cantilevers were immersed for 2 h in a solution prepared by mixing 1 mg of NHS-PEG27-maleimide[39] (JKU, Linz, Austria) dissolved in 0.5 ml of chloroform with 30 μl of triethylamine, then washed with chloroform and dried with N2. The cystein bearing peptide Cys-Gly3-Phe-[{Orn}Pro-{D-Cha}-Trp-Arg] […]
In FD-based AFM measurements, the AFM cantilever is oscillated in a sinusoidal manner well below its resonance frequency, while the sample surface is contoured pixel-by-pixel. For each approach–retraction cycle of the oscillating cantilever, a force–distance curve is recorded. […] Adhesion maps were recorded using a scan rate of 0.2 Hz and 256 × 256 pixels. […]
Raw images were analyzed using the Gwyddion 2.5 free software. Force–distance curves were analyzed using the Nanoscope Analysis 1.80 Software (Bruker). Individual force–distance curves corresponding to specific adhesion events were extracted and further analyzed using the OriginLab software. […]

## Ace-Phe-[{Orn}-Pro-{D-Cha}-Trp-Arg] (sidechain bridge or staple) [PMX53, cyclic antagonist peptide that mimics the C-terminal structure of the endogenous C5a ligand]
C5aR^D282A
  reduction of the free energy vs wild type: ~ 43%
C5aR^R175V/Y258V
  decrease in ∆Gbu vs wild type: ~ 3%
  reduction in residence time vs wild type: ~ 40%
